Experimental data taken from US20110117026A1, “METHODS AND COMPOSITIONS FOR THE DELIVERY OF BIOACTIVE COMPOUNDS” (priority 2008, published 2011).

Target: T1, recombinant caspase 3 (Homo sapiens, UniProt P42574)
T1 sequence (P42574 29-175 limits assumed): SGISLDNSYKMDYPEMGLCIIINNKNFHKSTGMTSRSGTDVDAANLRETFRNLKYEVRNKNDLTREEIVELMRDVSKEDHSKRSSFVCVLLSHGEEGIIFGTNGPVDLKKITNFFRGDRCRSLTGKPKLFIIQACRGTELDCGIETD
T1 sequence (P42574 176-277 limits assumed): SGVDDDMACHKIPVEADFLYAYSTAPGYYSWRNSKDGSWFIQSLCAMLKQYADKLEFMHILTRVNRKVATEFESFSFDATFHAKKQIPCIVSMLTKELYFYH
Test: Cleavage of imaging peptide by caspase 3 (Cy5.5/Cy7 FRET, nanofluorometer)
Type: biochemical
Conditions: caspase-3 pre-incubated with 10 μM inhibitor for one hour
Protocol: FIG. 27A-27D show the emission spectra of the imaging peptide. The fluorescence emission profiles of untreated peptide (FIG. 27A), peptide treated with 60 units of caspase-3 for 2 hours (FIG. 27B), peptide treated with 0.1 mg BSA (FIG. 27C), and peptide treated with 60 units caspase-3 that was pre-incubated with 10 μM caspase-3 inhibitor for one hour (FIG. 27D) were measured with a nanofluorometer.
In these studies, an imaging reporter system was developed which will allow the detection of apoptotic cells in a targeted tumor in situ upon administration of a cytotoxic agent. A peptide comprising an anionic tetrapeptide DEVD motif (SEQ ID NO: 5), which contains the sequence recognized by the activated caspase 3 (Nicholson et al. (1995) Nature 376(6535):37-43) was used for this purpose. The imaging peptide Ac-KDEVDCDEVDKDEVDC (SEQ ID NO: 6) contains three tetrapeptide repeats (underlined) to increase the amount of negative charges in the peptide for improved entrapment during the self-assembly of LPH nanoparticles. N-terminal acetylation further decreases the positive charge content of the peptide. […] The latter property is important for the fluorescence resonance energy transfer (FRET) that occurs when the two probes are in close proximity to each other. […] The fluorescence spectrum of the peptide was recorded with a nanofluorometer which only requires a 2 μL sample volume. […]

- block of caspase 3 induced increase in Cy5.5/Cy7 ratio: blocked
Substance: DEVD-CHO [reference compound]
